Data reported in patent US9518052B2, “Pyrazolopyridines and pyrazolopyrimidines” (Pfizer Inc., priority 2014, dated 2016).

Chains of the proteins cited; added tags and fusions are not shown.
UniProt P23458, whole entry, species assumed: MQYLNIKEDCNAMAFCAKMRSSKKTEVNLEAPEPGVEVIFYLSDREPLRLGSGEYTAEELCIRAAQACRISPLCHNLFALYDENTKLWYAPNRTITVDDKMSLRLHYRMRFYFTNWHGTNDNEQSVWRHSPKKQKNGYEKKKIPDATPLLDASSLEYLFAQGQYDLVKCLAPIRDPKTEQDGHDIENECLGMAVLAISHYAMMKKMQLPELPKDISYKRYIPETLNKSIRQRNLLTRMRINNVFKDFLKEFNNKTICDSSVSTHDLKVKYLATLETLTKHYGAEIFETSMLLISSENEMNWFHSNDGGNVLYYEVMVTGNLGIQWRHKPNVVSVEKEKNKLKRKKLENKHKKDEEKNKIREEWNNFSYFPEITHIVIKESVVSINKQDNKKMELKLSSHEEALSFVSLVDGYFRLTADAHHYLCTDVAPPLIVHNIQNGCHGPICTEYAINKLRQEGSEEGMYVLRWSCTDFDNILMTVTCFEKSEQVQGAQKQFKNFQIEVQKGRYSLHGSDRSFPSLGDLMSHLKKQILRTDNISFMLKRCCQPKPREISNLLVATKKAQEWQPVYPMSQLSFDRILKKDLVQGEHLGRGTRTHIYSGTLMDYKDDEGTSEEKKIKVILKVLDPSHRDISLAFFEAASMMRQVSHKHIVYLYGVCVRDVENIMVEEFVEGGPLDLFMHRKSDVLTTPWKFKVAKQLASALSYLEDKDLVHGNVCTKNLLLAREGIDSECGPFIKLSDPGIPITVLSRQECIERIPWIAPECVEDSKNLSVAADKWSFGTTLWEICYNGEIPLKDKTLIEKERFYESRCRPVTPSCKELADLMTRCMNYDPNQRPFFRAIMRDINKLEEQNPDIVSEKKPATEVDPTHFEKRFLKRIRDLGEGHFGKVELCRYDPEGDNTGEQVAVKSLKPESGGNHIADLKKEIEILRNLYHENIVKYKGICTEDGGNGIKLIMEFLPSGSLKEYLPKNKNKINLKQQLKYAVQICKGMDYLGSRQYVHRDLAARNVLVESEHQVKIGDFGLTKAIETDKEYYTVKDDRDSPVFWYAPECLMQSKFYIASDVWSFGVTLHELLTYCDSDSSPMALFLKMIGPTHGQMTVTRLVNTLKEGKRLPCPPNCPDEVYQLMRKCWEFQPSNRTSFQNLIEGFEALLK

Target: JAK1 (Homo sapiens (Human), UniProt P23458)
Assay: JAK Caliper Enzyme Assay at 1 mM ATP (JAK1)
Format: biochemical
Conditions: Caliper assay at 1 mM ATP
Description: JAK Caliper Enzyme Assay at 1 mM ATP
Test article was solubilized in dimethyl sulfoxide (DMSO) to a stock concentration of 30 mM. An 11-point half log dilution series was created in DMSO with a top concentration of 600 μM. […] The compound plates were diluted 1 to 60 resulting in a top final assay compound concentration of 10 μM and a 2% DMSO concentration.
Test article and assay controls were added to a 384-well plate. Reaction mixtures contained 20 mM HEPES, pH 7.4, 10 mM magnesium chloride, 0.01% bovine serum albumin (BSA), 0.0005% Tween 20, 1 mM ATP and 1 μM peptide substrate. […] Enzyme concentrations and incubation times were optimized for each new enzyme preps and were modified slightly over time to ensure 20%-30% phosphorylation. The assays were stopped with a final concentration of 10 mM EDTA, 0.1% Coating Reagent and 100 mM HEPES, pH=7.4. The assay plates were placed on a Caliper Life Science Lab Chip 3000 (LC3000) instrument, and each well was sampled using appropriate separation conditions to measure the unphosphorylated and phosphorylated peptide.

“N-benzyl-2-[6-(2-ethyl-4-hydroxyphenyl)-1H-pyrazolo[4,3-c]pyridin-4-yl]-1,2,3,4-tetrahydroiso-quinoline-5-carboxamide formate [Example 117]” gave an IC50 of 7.2 nM.
